Test results published in patent publication US11642344B2, “Cholesteryl ester transfer protein (CETP) inhibitor and pharmaceutical compositions comprising said inhibitor for use in the treatment or prevention of cardiovascular diseases” (NewAmsterdam Pharma B.V., priority 2014, dated 2023).

Chains of the proteins cited; added tags and fusions are not shown. Residues count along the entry.
UniProt P11597, 18-493 limits assumed: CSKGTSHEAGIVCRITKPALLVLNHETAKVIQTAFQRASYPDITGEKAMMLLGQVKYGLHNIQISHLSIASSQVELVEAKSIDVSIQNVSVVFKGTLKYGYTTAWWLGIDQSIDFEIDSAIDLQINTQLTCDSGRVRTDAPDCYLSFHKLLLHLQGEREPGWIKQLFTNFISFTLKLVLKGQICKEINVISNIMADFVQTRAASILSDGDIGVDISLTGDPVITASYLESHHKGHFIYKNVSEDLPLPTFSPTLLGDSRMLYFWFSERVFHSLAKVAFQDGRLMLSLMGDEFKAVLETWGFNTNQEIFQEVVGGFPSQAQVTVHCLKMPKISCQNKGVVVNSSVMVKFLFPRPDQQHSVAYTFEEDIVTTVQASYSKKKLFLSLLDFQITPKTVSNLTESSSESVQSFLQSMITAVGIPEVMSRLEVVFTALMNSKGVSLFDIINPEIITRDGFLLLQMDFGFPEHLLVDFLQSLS

Key:
CETP [1] = biological target: CETP (Homo sapiens, UniProt P11597); assay: In vitro CETP assay: 3H-labeled CE transfer from HDL to VLDL/LDL in human plasma; conditions: read-out: in vitro IC50 (μM) human plasma (24 h pre-incubation), 24 h pre-incubation at 37° C.
Method: Human blood was obtained from healthy male volunteers using 0.1% EDTA as an anticoagulant, and centrifuged at 3,000 rpm for 15 minutes at 4° C. Human plasma was pooled, and then used for the preparation of ^3H-labeled HDL or stored at −80° C. for CETP assay until use. The ^3H-labeled HDL was prepared with human plasma as described by Glenn and Melton (Methods in enzymology. 263; 339-351, 1996). The specific gravity of plasma was measured by a hydrometer, and the density was adjusted to 1.125 g/mL by adding solid KBr. After centrifugation at 100,000 rpm for 4 hours at 12° C. (rotor: 100.4, Optima TLX, Beckman), d>1.125 g/mL fraction was dialyzed against 4 L of Tris-saline-EDTA buffer (TSE; 50 mmol/L Tris, 150 mmol/L NaCl, 2 mmol/L EDTA, pH7.4) for 18 hours at 4° C. […] The radioactivity of ^3H-labeled HDL was counted in a liquid scintillation counter. ^3H-labeled HDL was stored at 4° C. until use.
CETP activity was determined as the rate of ^3H-labeled CE transfer from donor HDL to acceptor VLDL/LDL. […] After centrifugation at 3,000 rpm for 10 minutes at room temperature, the radioactivity of the supernatant was counted in a liquid scintillation counter. CETP activity was determined as the difference of the radioactivity between the samples incubated at 37° C. and 4° C. as follows: % inhibition=100−{dpm (DMSO at 4° C.−test compounds at 37° C.)/dpm (DMSO at 4° C.−DMSO at 37° C.)}×100. […]

CETP [2] = assay: Ex vivo serum CETP activity after oral administration to hamsters; conditions: 3 mg/kg oral, suspension in 0.5% CMC, serum 3 hours after administration
Method: Syrian Golden hamsters were used for the experiment after 1-week acclimatization. After an overnight fast, animals were orally given the compound suspension in 0.5% sodium carboxymethylcellulose in a volume of 10 mL/kg. Under deep anesthesia with ether, blood was collected from the abdominal aorta 3 hours after the administration. For preparation of serum, the collected blood was transferred to a plastic tube containing a clot activator, left still for 15 minutes at room temperature and centrifuged. Serum CETP activities were determined immediately.
Ninety-five μL serum were added to 5 μL of […] sodium phosphate buffered saline (pH 7.0) containing 1.5 mM 5,5′-dithio-bis(2-nitrobenzoic acid) in two 96-well V-bottom plates. One plate was incubated at 4° C. and the other was incubated at 37° C. […] Total cholesterol (TC) and free cholesterol (FC) in supernatant were measured using commercial kits (Cholesterol E-test wako, and Free Cholesterol E-test wako; Wako pure chemical). Cholesteryl ester (CE) was calculated by subtracting FC from TC. CETP activity was determined by the following formula: CETP activity=[CETP transfer]*/[CE value in 4° C. incubation sample] *CETP transfer=[CE value in 4° C. incubation sample]−[CE value in 37° C. incubation sample] […]

CC[C@@H]1C[C@H](N(Cc2cc(C(F)(F)F)cc(C(F)(F)F)c2)c2ncc(OCCCC(=O)O)cn2)c2cc(C(F)(F)F)ccc2N1C(=O)OCCCOC(C)=O
IC50 (CETP [1]): 0.11 µM
ex vivo (% inhibition) 3 mg/kg (CMC) (CETP [2]): 25.4%
